# Antibody variant affinities, Ab-95 light chain, assay 2

Target peptide (SARS-CoV-2 spike, HR2 region): PDVDLGDISGINAS

The variants keep the heavy chain, the linker and the frameworks of Ab-95 (scFv order VH, the linker GGGGSGGGGSGGGGS, VL).
VH: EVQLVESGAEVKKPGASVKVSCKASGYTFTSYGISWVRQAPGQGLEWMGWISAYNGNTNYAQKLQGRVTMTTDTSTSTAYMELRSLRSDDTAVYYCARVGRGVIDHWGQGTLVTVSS
VL: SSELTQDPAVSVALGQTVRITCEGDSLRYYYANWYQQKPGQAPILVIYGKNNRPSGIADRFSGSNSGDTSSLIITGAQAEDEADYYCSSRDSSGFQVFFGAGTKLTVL

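Phage display of a naive human antibody library on the peptide gave the parent. AAYL52 was designed without a model: most single CDR substitutions and a random sample of double and triple ones. AlphaSeq pools MATa yeast showing the antibodies with MATalpha yeast showing the peptide. Pairs that bind mate more often; barcode pairs of the diploids are counted by sequencing. A regression on co-assayed BCL2-family reference pairs converts the normalised counts of each replicate to an apparent Kd. The assay was run in three technical replicates.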

Changes read parent residue, position, new residue, counted from the first residue of the VL shown. This list gathers variants with a substitution at N52 (VL, numbered from residue 1). The Kd shown is the geometric mean over detected replicates; a lower Kd is a better binder. "nd" means that the variant was in the library but no mating with the target was seen in any replicate; the authors take this as a sign of poor binding, and no number exists. Entries are sorted by rising average, undetected variants last. For reference, the parent read 200 nM as the reference entry and 180 nM as a member of this library. Background: pairings of library AAYL52 with three empty control strains gave a value in 28% of cases (median 8.2 µM, 5th percentile 800 nM). Values in that range, when seen in few replicates, are hard to tell from nonspecific mating. The control count says in how many pairings with the empty strains this scFv gave a signal.

The variant N52T showed 58 nM (3 of 3 replicates; controls 4 of 9).
The variant R28D+Y29P+N52M showed 79 nM (3 of 3 replicates; controls 7 of 9).
The variant D25V+N52Q+P54D showed 99 nM (3 of 3 replicates; controls 0 of 9).
The variant E23G+Y29E+N52I showed 100 nM (3 of 3 replicates; controls 5 of 9).
The variant Y30K+N52L+S89R showed 190 nM (3 of 3 replicates; controls 2 of 9).
The variant N52A+R90T+G94W showed 230 nM (3 of 3 replicates; controls 0 of 9).
The variant N52T+R90K showed 260 nM (3 of 3 replicates; controls 1 of 9).
The variant E23T+N52M+S93A showed 300 nM (3 of 3 replicates; controls 3 of 9).
The variant S26W+N51P+N52K showed 420 nM (2 of 3 replicates; controls 1 of 9).
The variant N52T+S88Q+S89R showed 440 nM (3 of 3 replicates; controls 2 of 9).
The variant Y31L+N52W+S92E showed 450 nM (3 of 3 replicates; controls 0 of 9).
The variant N52V+S92E+V97C showed 470 nM (3 of 3 replicates; controls 0 of 9).
The variant S26M+N52I showed 760 nM (3 of 3 replicates; controls 3 of 9).
The variant Y29N+N52P+V97C showed 770 nM (3 of 3 replicates; controls 2 of 9).
The variant G24I+D25Y+N52K showed 1.0 µM (3 of 3 replicates; controls 2 of 9).
The variant N52F+S93H showed 1.2 µM (3 of 3 replicates; controls 1 of 9).
The variant D25T+N52F+S93W showed 1.7 µM (2 of 3 replicates; controls 2 of 9).
The variant K50E+N52P+S55D showed 1.8 µM (3 of 3 replicates; controls 3 of 9).
The variant E23W+N33E+N52M showed 2.0 µM (3 of 3 replicates; controls 8 of 9).
The variant E23I+N52G showed 2.2 µM (3 of 3 replicates; controls 3 of 9).
The variant N33C+N52H+S89F showed 2.3 µM (1 of 3 replicates; controls 2 of 9).
The variant N52R showed 2.4 µM (3 of 3 replicates; controls 3 of 9).
The variant E23T+L27G+N52E showed 2.6 µM (3 of 3 replicates; controls 3 of 9).
The variant N52H+R53W+F95P showed 2.8 µM (2 of 3 replicates; controls 2 of 9).
The variant L27P+G49H+N52D showed 3.0 µM (2 of 3 replicates; controls 3 of 9).
The variant N52C+R90D showed 3.1 µM (2 of 3 replicates; controls 4 of 9).
The variant G24E+L27T+N52H showed 4.3 µM (1 of 3 replicates; controls 4 of 9).
The variant G49V+N52T+F98T showed 4.8 µM (2 of 3 replicates; controls 3 of 9).
The variant Y29M+N52D+V97D showed 5.4 µM (1 of 3 replicates; controls 1 of 9).
The variant Y31C+G49A+N52F showed 6.3 µM (1 of 3 replicates; controls 2 of 9).
The variant G24H+Y30C+N52K showed 7.4 µM (3 of 3 replicates; controls 2 of 9).
The variant N52C+D91K+F95G showed 8.1 µM (1 of 3 replicates; controls 3 of 9).
The variant N52R+S88Q+F98Q showed 12 µM (3 of 3 replicates; controls 3 of 9).
The variant A32R+N51H+N52D showed 16 µM (1 of 3 replicates; controls 0 of 9).
The variant D25S+N52K+D91N showed 22 µM (1 of 3 replicates; controls 2 of 9).
The variant D25H+N52C+V97D showed 24 µM (1 of 3 replicates; controls 2 of 9).
The variant Y29D+N52E+R90H showed 25 µM (3 of 3 replicates; controls 1 of 9).
The variant A32Y+N52A showed 27 µM (2 of 3 replicates; controls 3 of 9).
The variant L27F+N52W+D91Y showed 39 µM (2 of 3 replicates; controls 4 of 9).
The variant G49P+N52D+D91Q showed 44 µM (1 of 3 replicates; controls 2 of 9).
The variant Y31H+N52H+D91L showed 62 µM (2 of 3 replicates; controls 2 of 9).
The variant S26K+N52K+G94M showed 69 µM (1 of 3 replicates; controls 0 of 9).
The variant L27S+N52A+V97H showed 71 µM (1 of 3 replicates; controls 5 of 9).
The variant N52I+S88P+D91Q showed 110 µM (1 of 3 replicates; controls 1 of 9).
The variant N52F+R53F+F98M showed 140 µM (2 of 3 replicates; controls 3 of 9).
The variant D25E+G49C+N52Y showed 210 µM (2 of 3 replicates; controls 2 of 9).
The variant N33H+N52W+V97K showed nd (0 of 3 replicates; controls 3 of 9).
The variant N33I+N52H+R53N showed nd (0 of 3 replicates; controls 0 of 9).
The variant G24W+A32F+N52G showed nd (0 of 3 replicates; controls 0 of 9).
The variant N52P+S55W+S89E showed nd (0 of 3 replicates; controls 0 of 9).

For reference, 6 entries of the list once more:

changes	Kd	detected	empty controls
N52A+R90T+G94W	230 nM	3/3	0/9
L27F+N52W+D91Y	39 µM	2/3	4/9
N33C+N52H+S89F	2.3 µM	1/3	2/9
N52T+R90K	260 nM	3/3	1/9
L27P+G49H+N52D	3.0 µM	2/3	3/9
D25E+G49C+N52Y	210 µM	2/3	2/9

From the AlphaSeq antibody data of Engelhart et al. 2022 (doi:10.1038/s41597-022-01779-4), copy in the FLAb collection.